Values quoted from earlier work in patent US20080312581A1, “Peptosomes for Use in Acoustically Mediated Intracellular Drug Delivery in vivo” (Biovaluation & Analysis, Inc., priority 2007, published 2008).

Legend:
[1] = pyrene fluorescence at 20° C.; cited from earlier work
[2] = parameters: key to Observed Structure: V = vesicle; A = irregular aggregate; S = membrane sheet; F = fiber; M = micelle; conditions: cited from earlier work

Substance: poly(L-lysine-HBr)60-block-poly(L-leucine)20 [Copolypeptide K60L20]
- CMC [1]: 670 nM
- Observed Structure ([2]; assembled structure in solution, determined visually from DIC images and DLS measurements): V
- Size (average assembly size) ([2]; assembled structures in solution): 960 nm
- PDI (assembly polydispersity) ([2]; determined by DLS): 0.24
